{"source": "paper PMC2728155", "about": "(Molecular cancer therapeutics, 2009)", "test_system": "phospho-VEGF-receptor and PARP in ACHN cells", "assay": "Immunoblot of phospho-VEGF-receptor and PARP cleavage", "format": "cell-based, human", "conditions": "10 μM, 24 and 48 h", "data": [{"compound": "CNC(=O)c1cc(Oc2ccc(NC(=O)Nc3ccc(Cl)c(C(F)(F)F)c3)cc2)ccn1", "note": "[Sorafenib]", "values": [{"measurement": "Apoptosis by PARP cleavage", "result": "causes apoptosis as is evidenced by PARP cleavage"}, {"measurement": "Phospho-VEGF-receptor", "result": "attenuates phospho-VEGF"}]}]}
